Biological target: p97 (Homo sapiens (Human), UniProt P55072)
Test: P97 ATPase biochem assay (ADP Glo)
Conditions: read-out: p97 biochem IC50; 20 nM p97, 20 μM ATP, 37° C., 15 minutes

Chains of the proteins cited; added tags and fusions are not shown.
UniProt P55072, whole entry: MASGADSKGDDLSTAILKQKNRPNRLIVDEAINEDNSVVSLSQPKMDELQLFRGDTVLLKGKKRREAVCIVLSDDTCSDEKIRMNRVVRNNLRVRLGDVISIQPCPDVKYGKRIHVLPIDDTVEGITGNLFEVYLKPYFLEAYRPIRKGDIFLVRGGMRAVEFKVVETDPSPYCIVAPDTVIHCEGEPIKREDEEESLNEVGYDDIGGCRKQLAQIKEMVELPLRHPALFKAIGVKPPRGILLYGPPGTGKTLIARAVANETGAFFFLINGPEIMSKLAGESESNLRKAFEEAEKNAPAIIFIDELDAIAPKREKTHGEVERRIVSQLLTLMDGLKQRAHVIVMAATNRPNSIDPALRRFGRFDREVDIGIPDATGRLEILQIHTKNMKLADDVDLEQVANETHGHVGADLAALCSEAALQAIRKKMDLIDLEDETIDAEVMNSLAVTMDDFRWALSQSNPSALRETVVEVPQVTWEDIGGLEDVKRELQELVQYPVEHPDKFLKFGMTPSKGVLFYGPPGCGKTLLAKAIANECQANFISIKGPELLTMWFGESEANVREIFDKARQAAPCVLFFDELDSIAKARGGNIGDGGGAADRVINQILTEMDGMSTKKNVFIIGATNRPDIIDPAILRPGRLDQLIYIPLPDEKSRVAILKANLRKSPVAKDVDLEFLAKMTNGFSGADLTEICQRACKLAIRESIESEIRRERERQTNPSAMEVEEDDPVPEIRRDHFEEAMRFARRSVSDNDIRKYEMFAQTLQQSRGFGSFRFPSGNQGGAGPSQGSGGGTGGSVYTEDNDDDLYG

IC50: < 5 µM
SMILES: Nc1nc2ccccc2n1-c1nc(NCc2ccccc2)c2ccsc2n1
